## Apparent affinities of Ab-14 variants for a coronavirus HR2 peptide

Binding partner: SARS-CoV-2 spike HR2 peptide, sequence PDVDLGDISGINAS.

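The parent was found by panning a naive human phage display library on the peptide. The library (AAYL50) carries one to three amino acid substitutions per variant, with no insertions or deletions. In AlphaSeq, yeast of one mating type display the scFv and yeast of the other type display the target. Binding brings cells together so that they mate, and sequencing counts the barcode pairs among the diploids. A regression on co-assayed BCL2-family reference pairs converts the normalised counts of each replicate to an apparent Kd. Mating was done three times.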

Ab-14 is the parent antibody, in scFv form: VH, then three GGGGS repeats, then VL. The heavy chain is unchanged in all variants.
VH: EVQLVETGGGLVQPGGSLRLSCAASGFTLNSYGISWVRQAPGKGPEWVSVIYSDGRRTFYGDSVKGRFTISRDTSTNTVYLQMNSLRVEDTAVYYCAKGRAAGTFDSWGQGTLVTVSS
VL: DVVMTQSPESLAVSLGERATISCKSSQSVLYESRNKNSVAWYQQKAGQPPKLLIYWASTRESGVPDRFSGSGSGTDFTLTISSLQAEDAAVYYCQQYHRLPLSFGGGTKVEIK

The parent's light chain CDRs are KSSQSVLYESRNKNSVA, WASTRES, QQYHRLPLS; each variant's own CDRs replace them letter for letter.
Kd is apparent (estimated from mating counts) and averaged on the log scale over replicates with a signal. Smaller is tighter.
An entry "nd" has no value in the source: the pair was not observed among the diploids in any replicate. This suggests poor binding but is not conclusive.

| CDR-L1 | CDR-L2 | CDR-L3 | Kd | replicates with signal |
|---|---|---|---|---|
| KSSQSVLYESRNKFSVA | WASERES | QQYQRLPLS | 7.9 nM | 3/3 |
| KFSQSVLYESRHKNSVA | WASTCES | QQYHRLPLS | 230 nM | 3/3 |
| KSSQSVLYESRNKNSVA | WASTRES | IQPHMLPLS | 12 nM | 3/3 |
| KSSQSVLYASRNKNSVA | WASTRES | YQYHRLPLS | nd | 0/3 |
| KSSQSVLYWSRNKNSVA | PASTYES | QQYHRLPLS | nd | 0/3 |
| KAQQSVLYESRNKNSWA | WASTRES | QQYHRLPLS | 41 µM | 1/3 |
| KSSQCVLYESRNKNSVA | WASTREK | QQYHRLCLS | nd | 0/3 |
| KSSQSVLYESRNKNSVA | WASTREF | YQGHRLPLS | 12 µM | 2/3 |
| KSSQSVLYESNNKNSVA | AADTRES | QQYHRLPLS | 1.0 nM | 3/3 |
| KSSQSVLYSSRNKNSVA | WASTRES | QQYHRRPLS | nd | 0/3 |
| KSSQSVLYESRNKNSVA | GASTRLS | QQYHRLTLS | nd | 0/3 |
| FSQQSVVYESRNKNSVA | WASTRES | QQYHRLPLS | 93 nM | 3/3 |
| KDSQSVLYESRNKNSVA | WAWWRES | QQYHRLPLS | nd | 0/3 |
| KSSQSVHYESRNKNSVA | WADTRES | QQYHRLHLS | nd | 0/3 |
| KSSQSVDYESRNKNSQA | WASMRES | QQYHRLPLS | nd | 0/3 |
| KSSQSVLYMSRNKNSVA | WASTRES | IQYKRLPLS | nd | 0/3 |
| KSSQSVLYESRGKNKVA | WASTRES | QQYHRLPLS | 92 µM | 1/3 |
| KSLQSVLYFSRNKNSVA | WASTRES | QQYHLLPLS | nd | 0/3 |
| KSSQSVLYELRNKNSVA | WACTRES | QQYHRLVLS | nd | 0/3 |
| KSSQSVLYTSRNKNSVA | WAITRES | QQYHKLPLS | 10 nM | 3/3 |
| KSSQSVLYESLNKNSVA | WASTRCS | QQYTRLPLS | 6.4 nM | 3/3 |
| KSSQSRLYESRNKNSYA | WANTRES | QQYHRLPLS | 130 nM | 3/3 |
| KSSGSVLYESPNKNSVA | WASTRES | QQYHRLPLS | 9.9 nM | 3/3 |
| KSSQSVLYESTNKNSVA | WASTREL | QQYHRAPLS | 3.6 nM | 3/3 |
| KSEQSILYESRNKNNVA | WASTRES | QQYHRLPLS | 1.2 nM | 3/3 |
| KSSQSVLYESRNKNSVA | WATTSES | QQPHRLPLS | 26 µM | 2/3 |
| KSKQSDLYESRNKNSVA | WPSTRES | QQYHRLPLS | 52 µM | 1/3 |
| KSSLSVLYESRNKSSVA | WASTRES | QQYHRLPLQ | 52 nM | 3/3 |
| KSSQSVLYESYNKNSVA | WASTRFS | HQYHRLPLS | nd | 0/3 |
| KSSQSVLYESINKNSVA | WASLRES | QQYSRLPLS | 4.9 nM | 3/3 |
| KSSQSVLYESRNKNSVA | WAATRES | QQYHRMPLM | 250 nM | 3/3 |
| KSSQSVLYWSRNKNSIA | WASTRES | QQLHRLPLS | 29 nM | 3/3 |
| KSSQSVLYESRNKNSVA | WASTRES | EQYHRLNHS | 5.1 nM | 3/3 |
| KSSQMVLYESRNKNSVA | WAGDRES | QQYHRLPLS | 690 nM | 3/3 |
| KSLQSVLYESRNKNSVA | WASTEES | QQYHRRPLS | nd | 0/3 |
| KSSISVLYESRNKNSVA | WASTRES | QQGHSLPLS | 85 µM | 3/3 |
| KSSQLVLYESRNKNSVA | WASTRES | SQYHRLPLS | 2.2 µM | 2/3 |
| KSMQSVLYESRNKNEVA | WAITRES | QQYHRLPLS | 5.7 µM | 3/3 |
| ASSQFVLYESRNKNSVA | WASTEES | QQYHRLPLS | 52 µM | 1/3 |
| KKSQSVLYESRNKNSVA | WNSTRES | KQYHRLPLS | nd | 0/3 |
| KSSQSVLYASRNKNSVA | WHSTRES | QQYQRLPLS | nd | 0/3 |
| KSSQSVLYESRNKNSVA | WASTRES | QQYLRLPSS | 5.2 nM | 3/3 |
| KSSQSVLYESRMKNSVA | WAKTRES | QQYHSLPLS | 1.1 µM | 3/3 |
| KSSQSVLYESRNKNSVA | WLSARES | QQYHRLPLT | nd | 0/3 |
| KSSQSVLYESTNKNSTA | WASTREY | QQYHRLPLS | nd | 0/3 |
| WSSQSVLYESINKNSNA | WASTRES | QQYHRLPLS | nd | 0/3 |
| KSSQSVLLESRNANSVA | WASTRES | QQYHRLPLP | nd | 0/3 |
| ASSQSVLYESRNKNSVA | WASTRES | QQLARLPLS | nd | 0/3 |
| KSPQSVLYESRNKNSVA | WAATRES | QQYHRLPLS | 38 nM | 3/3 |
| KSSQSDLYESRNKNSGC | WASTRES | QQYHRLPLS | nd | 0/3 |
| ASVQSVLYESRNTNSVA | WASTRES | QQYHRLPLS | 500 nM | 3/3 |
| KSSQSVLYESRNKNKVA | WASLRES | QGYHRLPLS | nd | 0/3 |
| KRSQSVMYESRNKNSQA | WASTRES | QQYHRLPLS | nd | 0/3 |
| KSSDSVLYESRNKNSVA | WASTRES | LQYHRLPGS | 45 µM | 3/3 |
| KSSQSVAYEWRNKNSVA | HASTRES | QQYHRLPLS | 3.4 nM | 3/3 |
| KSSQSVLYEVRNKNSVA | WAGTRES | QQYHRYPLS | nd | 0/3 |
| KSSQSVLYESRNKNSVA | WASTREM | QQYHRSPLS | nd | 0/3 |
| KSSQSHLYESRNKNSVP | WASTRES | QQYFRLPLS | nd | 0/3 |
| KSTQSVLYEIRNKNSVA | WASTRES | QQYHRLPLY | nd | 0/3 |
| KSSQSVLYESREKESVA | WASTRES | FQYHRLPLS | 49 nM | 3/3 |
| KSSQSVLYESRNKNSVN | WACTRES | QQYHRLQLS | nd | 0/3 |
| KSSQSVLYESRNKNSVA | WAGTRES | QKYHRLPLS | 13 nM | 3/3 |
| KSSQSVLYESRNKNSVA | WASTRES | QKYVRLPES | nd | 0/3 |
| KSSQSVNYESRNKNSVA | WASTRES | QQYGRLPLS | 20 nM | 3/3 |
| KSSQSVLYESCSKNSVA | WASTRES | QQYHILPLS | nd | 0/3 |
| KSSQSVLYEFRNCNSVA | WASTRES | PQYHRLPLS | nd | 0/3 |
| KSAQSVLYESRNKNSVA | WQSTRES | QQAHRLPLS | 43 µM | 2/3 |
| KSSNSVLYESRNKNSVA | WASARES | QTYHRLPLS | 2.8 µM | 2/3 |
| KSSQSVLYESRNKNSFA | WLSTRRS | QQYHRLPLS | nd | 0/3 |
| KSSQSVLYEERNKNHVA | WASTRES | QQYHRLPLS | 43 nM | 3/3 |
| KSSESNLYESRNKNSVA | WASTRES | QAYHRLPLS | 20 nM | 3/3 |
| TSSQSRLYESRNKNSAA | WASTRES | QQYHRLPLS | 14 µM | 1/3 |
| KSSQSVLYESRNVNSVA | WASTREA | QQYNRLPLS | 4.9 nM | 3/3 |
| KSSQSCLYGSRNKESVA | WASTRES | QQYHRLPLS | 43 nM | 3/3 |

Top 11 of the variants detected in all replicates, tightest first:

| CDR-L1 | CDR-L2 | CDR-L3 | Kd | replicates with signal |
|---|---|---|---|---|
| KSSQSVLYESNNKNSVA | AADTRES | QQYHRLPLS | 1.0 nM | 3/3 |
| KSEQSILYESRNKNNVA | WASTRES | QQYHRLPLS | 1.2 nM | 3/3 |
| KSSQSVAYEWRNKNSVA | HASTRES | QQYHRLPLS | 3.4 nM | 3/3 |
| KSSQSVLYESTNKNSVA | WASTREL | QQYHRAPLS | 3.6 nM | 3/3 |
| KSSQSVLYESRNVNSVA | WASTREA | QQYNRLPLS | 4.9 nM | 3/3 |
| KSSQSVLYESINKNSVA | WASLRES | QQYSRLPLS | 4.9 nM | 3/3 |
| KSSQSVLYESRNKNSVA | WASTRES | EQYHRLNHS | 5.1 nM | 3/3 |
| KSSQSVLYESRNKNSVA | WASTRES | QQYLRLPSS | 5.2 nM | 3/3 |
| KSSQSVLYESLNKNSVA | WASTRCS | QQYTRLPLS | 6.4 nM | 3/3 |
| KSSQSVLYESRNKFSVA | WASERES | QQYQRLPLS | 7.9 nM | 3/3 |
| KSSGSVLYESPNKNSVA | WASTRES | QQYHRLPLS | 9.9 nM | 3/3 |

Empty control strains, which show no peptide, gave a signal in 18% of pairings with library AAYL50; the median was 15 µM and 95% of these signals were weaker than 970 nM. No background was subtracted.
Parent in this assay: reference entry 4.4 nM, copy in this library 48 nM.

Reference: Engelhart et al. 2022, doi:10.1038/s41597-022-01779-4. File: FLAb, binding data.